pIC50: −log10 of the molar value.
Target: Vascular endothelial growth factor receptor 2 (Homo sapiens, UniProt P35968)
Experiment: Inhibition of GST-tagged human recombinant VEGFR2 expressed in baculovirus

Protein sequences, listed by entry. Tags and fused reporters are not part of them.
UniProt P35968, whole entry: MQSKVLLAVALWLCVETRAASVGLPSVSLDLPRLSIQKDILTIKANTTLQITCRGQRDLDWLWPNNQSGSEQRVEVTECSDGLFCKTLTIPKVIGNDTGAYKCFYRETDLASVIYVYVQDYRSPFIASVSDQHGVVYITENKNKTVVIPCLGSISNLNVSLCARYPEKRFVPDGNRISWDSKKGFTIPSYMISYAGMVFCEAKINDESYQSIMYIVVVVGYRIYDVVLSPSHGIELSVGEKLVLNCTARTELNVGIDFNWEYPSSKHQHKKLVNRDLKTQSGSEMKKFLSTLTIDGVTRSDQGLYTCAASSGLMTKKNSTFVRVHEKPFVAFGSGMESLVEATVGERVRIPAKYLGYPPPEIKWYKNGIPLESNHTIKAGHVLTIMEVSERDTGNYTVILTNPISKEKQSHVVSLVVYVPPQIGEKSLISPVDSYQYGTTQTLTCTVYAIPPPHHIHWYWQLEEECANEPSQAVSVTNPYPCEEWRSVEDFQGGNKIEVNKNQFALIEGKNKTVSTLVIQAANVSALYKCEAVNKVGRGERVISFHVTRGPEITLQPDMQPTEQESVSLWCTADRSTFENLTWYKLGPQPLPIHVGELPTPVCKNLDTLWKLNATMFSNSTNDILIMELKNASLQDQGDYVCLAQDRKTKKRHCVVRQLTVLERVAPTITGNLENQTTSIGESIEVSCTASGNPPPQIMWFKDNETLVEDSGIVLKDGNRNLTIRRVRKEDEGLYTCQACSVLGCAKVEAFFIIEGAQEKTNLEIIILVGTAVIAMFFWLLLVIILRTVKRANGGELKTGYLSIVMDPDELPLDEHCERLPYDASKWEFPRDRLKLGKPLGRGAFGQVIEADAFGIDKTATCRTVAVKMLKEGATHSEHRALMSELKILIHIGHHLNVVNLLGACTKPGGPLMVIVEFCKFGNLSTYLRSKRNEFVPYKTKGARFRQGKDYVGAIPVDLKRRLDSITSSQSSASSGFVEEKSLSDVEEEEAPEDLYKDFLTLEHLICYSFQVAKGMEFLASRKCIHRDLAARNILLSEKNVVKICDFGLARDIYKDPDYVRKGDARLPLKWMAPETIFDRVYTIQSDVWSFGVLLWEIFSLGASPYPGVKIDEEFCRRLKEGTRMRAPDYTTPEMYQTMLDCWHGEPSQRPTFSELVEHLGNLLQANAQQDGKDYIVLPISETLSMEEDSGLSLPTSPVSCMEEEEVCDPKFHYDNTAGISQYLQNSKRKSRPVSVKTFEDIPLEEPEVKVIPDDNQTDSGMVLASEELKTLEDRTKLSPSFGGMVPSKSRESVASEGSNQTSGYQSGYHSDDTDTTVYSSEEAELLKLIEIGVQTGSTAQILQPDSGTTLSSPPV

Question: How did the pIC50 turn out when `COC(=O)Nc1nc2ccc(Oc3ccc(NC(=O)Nc4cc(C(F)(F)F)ccc4F)cc3)cc2[nH]1` was run?
Answer: Its pIC50 is 8.46.

From ChEMBL document CHEMBL1148750, “Discovery of novel benzimidazoles as potent inhibitors of TIE-2 and VEGFR-2 tyrosine kinase receptors” (J Med Chem, 2007)
